Assay [1] deals with P. aeruginosa. Put plainly: Broth microdilution MIC/MBC of conventional antibiotics, planktonic form. To be noted: Pseudomonas aeruginosa, MHB, 5 x 10^5 CFU/ml, 37 °C, 24 h, CLSI. The assay is classed as cell-based. Here is the method:
(§1) MICs and MBCs of conventional antibiotics were determined using a broth microdilution technique. […] Only P. aeruginosa was additionally tested for susceptibility to TOB (Sigma-Aldrich) (0.03–52 μM or 0.01–25 μg/ml). Bacterial suspensions (5 x 10^5 CFU/ml) were added to the microtiter plates, which were then incubated at 37 °C for 24 h. Antibiotic-free culture was used as a control. […] The results were confirmed using a microplate reader at OD620 (Sunrise™, TECAN, Australia). The plate count technique was further used to determine the MBC values on Mueller Hinton agar (MHA) (Himedia®). Each experiment was performed independently three times in triplicate.
(In broth dilution the organism is exposed to a series of concentrations in liquid medium.)

The test system of assay [2] is S. epidermidis. The description is as above. Format: cell-based. The conditions noted are these: Staphylococcus epidermidis, broth microdilution then plate count on MHA. Here is the method: as §1

Several values for one entry are separate records, joined by “and”; a condition that tells them apart may be missing. Equal entries are not always repeated.

Take `CC1(C)S[C@@H]2[C@H](NC(=O)[C@H](N)c3ccc(O)cc3)C(=O)N2[C@H]1C(=O)O` [AMX, amoxicillin]: the minimal inhibitory concentration (MIC) in assay [1] came out at 17.1 mM. The MBC in assay [2] is 17100 µM and 6250 µg/mL.

As usually defined, the MIC is the lowest concentration found to suppress growth. For orientation: MBC means the smallest concentration meeting the test's criterion for killing.

For the origin of these results see article PMC7743948, “D-LL-31 enhances biofilm-eradicating effect of currently used antibiotics for chronic rhinosinusitis and its immunomodulatory activity on human lung epithelial cells” (PLoS ONE, 2020).
